Values quoted from earlier work as cited in US5034212A, “Method of imaging using a radioactive glucosamine derivative” (Nihon Medi-Physics Co., Ltd., priority 1989, dated 1991).

Test system: hexokinase
Details: cited from earlier work

## OC[C@H]1OC(O)[C@H]([18F])[C@@H](O)[C@@H]1O (some centres unmarked) [^18 F-FDG, ^18 F-labeled deoxyglucose]
  Passage through cell membrane: passes through a cell membrane into a cell according to the glucose carrier system
  Phosphorylation by hexokinase inside the cell: phosphorylated at the 6-position by the action of hexokinase inside the cell and is stored therein
